Source: patent EP0612845A2 (priority 1993, dated 1994)

The chains behind the UniProt entries cited, without tags or fusion partners.
UniProt P33535, whole entry, looked up: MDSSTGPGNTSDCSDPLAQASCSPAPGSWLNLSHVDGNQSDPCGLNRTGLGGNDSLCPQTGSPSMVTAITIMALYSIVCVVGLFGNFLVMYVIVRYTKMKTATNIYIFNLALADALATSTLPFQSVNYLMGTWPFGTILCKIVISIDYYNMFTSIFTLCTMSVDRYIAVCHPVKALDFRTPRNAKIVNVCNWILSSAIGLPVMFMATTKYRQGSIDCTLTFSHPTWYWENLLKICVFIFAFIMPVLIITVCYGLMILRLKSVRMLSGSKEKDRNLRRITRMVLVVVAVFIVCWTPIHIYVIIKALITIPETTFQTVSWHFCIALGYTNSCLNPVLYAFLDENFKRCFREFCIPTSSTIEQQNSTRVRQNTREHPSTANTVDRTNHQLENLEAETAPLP

Tests used:
[1] = molecular target: T1, m-opiate receptor (mOR) cDNA RC8-1 expressed in COS cells (Rattus norvegicus, UniProt P33535); settings: membranes of COS cells expressing RC8-1
[2] = molecular target: T1, m-opiate receptor (mOR) cDNA RC8-1 expressed in COS cells; assay: Displacement of [3H]DAMGO binding from membranes of COS cells expressing RC8-1

Question: Which results are given for `CN(C(=O)Cc1ccccc1)C1CCC2(CCCO2)CC1N1CCCC1` (centres unmarked)?
Answer: specific recognition of the radioligand [1]: no appreciable specific recognition; potency in displacing binding of [³H]DAMGO [2]: substantially less potency
